What was measured:
Assay in all cases: Kinase inhibition, percentage of activity at 0.5 μM, standardized radiometric kinase assays;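 note: each kinase tested separately, with activity read as 33P-labelled substrate protein captured on filters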
Format in all cases: biochemical
protein kinases [1] = target: protein kinases (Homo sapiens, UniProt O14757); settings: CHK1(h)
protein kinases [2] = target: protein kinases (Homo sapiens, UniProt O60674); settings: JAK2(h)
protein kinases [3] = target: protein kinases (Homo sapiens, UniProt P08581); settings: Met(h)
protein kinases [4] = target: protein kinases (Homo sapiens, UniProt P17252); settings: PKCα(h)
protein kinases [5] = target: protein kinases (Homo sapiens, UniProt P54756); settings: EphA5(h)
protein kinases [6] = target: protein kinases (Homo sapiens, UniProt Q02763); settings: Tie2(h)
protein kinases [7] = target: protein kinases (Homo sapiens, UniProt Q15375); settings: EphA7(h)
protein kinases [8] = target: protein kinases (Homo sapiens, UniProt Q9H2X6); settings: HIPK2(h)
protein kinases [9] = target: protein kinases (Homo sapiens, UniProt Q9Y6M4); settings: CK1γ3(h)

Sequences of proteins named here, by UniProt entry; tags and fusion partners are left off. Residues count along the entry.
UniProt P08581, 25-1390 limits assumed: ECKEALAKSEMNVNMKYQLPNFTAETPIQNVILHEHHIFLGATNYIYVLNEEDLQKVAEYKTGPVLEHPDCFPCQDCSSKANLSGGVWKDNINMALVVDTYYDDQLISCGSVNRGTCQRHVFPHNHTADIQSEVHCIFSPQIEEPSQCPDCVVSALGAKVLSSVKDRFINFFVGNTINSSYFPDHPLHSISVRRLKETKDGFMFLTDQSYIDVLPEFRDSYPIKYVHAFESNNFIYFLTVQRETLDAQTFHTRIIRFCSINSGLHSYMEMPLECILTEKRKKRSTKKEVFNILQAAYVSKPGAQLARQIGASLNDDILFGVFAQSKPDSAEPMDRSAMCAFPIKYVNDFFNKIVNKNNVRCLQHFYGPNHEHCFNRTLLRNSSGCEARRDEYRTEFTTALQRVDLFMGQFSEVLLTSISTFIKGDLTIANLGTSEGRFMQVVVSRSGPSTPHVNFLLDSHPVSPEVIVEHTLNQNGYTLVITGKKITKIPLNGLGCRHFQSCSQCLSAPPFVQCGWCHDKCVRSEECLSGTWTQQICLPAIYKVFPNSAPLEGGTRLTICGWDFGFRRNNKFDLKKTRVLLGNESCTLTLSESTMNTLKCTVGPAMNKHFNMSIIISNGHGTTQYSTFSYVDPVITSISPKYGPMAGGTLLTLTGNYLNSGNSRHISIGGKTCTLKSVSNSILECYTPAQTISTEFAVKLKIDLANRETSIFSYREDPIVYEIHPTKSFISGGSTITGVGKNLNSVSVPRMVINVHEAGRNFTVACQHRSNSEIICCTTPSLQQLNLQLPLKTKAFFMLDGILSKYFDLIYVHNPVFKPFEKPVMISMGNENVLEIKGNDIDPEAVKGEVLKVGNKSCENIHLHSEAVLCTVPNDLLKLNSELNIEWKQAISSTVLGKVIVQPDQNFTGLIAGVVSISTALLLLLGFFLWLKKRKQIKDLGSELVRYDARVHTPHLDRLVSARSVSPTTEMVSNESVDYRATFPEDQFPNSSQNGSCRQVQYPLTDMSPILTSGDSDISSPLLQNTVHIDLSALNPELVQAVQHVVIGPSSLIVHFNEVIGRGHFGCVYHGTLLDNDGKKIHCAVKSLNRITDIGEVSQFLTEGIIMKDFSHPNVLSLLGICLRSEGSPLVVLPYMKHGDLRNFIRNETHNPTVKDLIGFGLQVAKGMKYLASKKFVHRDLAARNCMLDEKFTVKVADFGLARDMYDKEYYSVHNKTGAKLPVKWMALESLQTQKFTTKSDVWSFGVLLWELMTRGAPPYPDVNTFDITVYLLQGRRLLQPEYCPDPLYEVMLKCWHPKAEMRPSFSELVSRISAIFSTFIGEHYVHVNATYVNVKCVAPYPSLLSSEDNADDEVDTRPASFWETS
UniProt P54756, 25-1037 limits assumed: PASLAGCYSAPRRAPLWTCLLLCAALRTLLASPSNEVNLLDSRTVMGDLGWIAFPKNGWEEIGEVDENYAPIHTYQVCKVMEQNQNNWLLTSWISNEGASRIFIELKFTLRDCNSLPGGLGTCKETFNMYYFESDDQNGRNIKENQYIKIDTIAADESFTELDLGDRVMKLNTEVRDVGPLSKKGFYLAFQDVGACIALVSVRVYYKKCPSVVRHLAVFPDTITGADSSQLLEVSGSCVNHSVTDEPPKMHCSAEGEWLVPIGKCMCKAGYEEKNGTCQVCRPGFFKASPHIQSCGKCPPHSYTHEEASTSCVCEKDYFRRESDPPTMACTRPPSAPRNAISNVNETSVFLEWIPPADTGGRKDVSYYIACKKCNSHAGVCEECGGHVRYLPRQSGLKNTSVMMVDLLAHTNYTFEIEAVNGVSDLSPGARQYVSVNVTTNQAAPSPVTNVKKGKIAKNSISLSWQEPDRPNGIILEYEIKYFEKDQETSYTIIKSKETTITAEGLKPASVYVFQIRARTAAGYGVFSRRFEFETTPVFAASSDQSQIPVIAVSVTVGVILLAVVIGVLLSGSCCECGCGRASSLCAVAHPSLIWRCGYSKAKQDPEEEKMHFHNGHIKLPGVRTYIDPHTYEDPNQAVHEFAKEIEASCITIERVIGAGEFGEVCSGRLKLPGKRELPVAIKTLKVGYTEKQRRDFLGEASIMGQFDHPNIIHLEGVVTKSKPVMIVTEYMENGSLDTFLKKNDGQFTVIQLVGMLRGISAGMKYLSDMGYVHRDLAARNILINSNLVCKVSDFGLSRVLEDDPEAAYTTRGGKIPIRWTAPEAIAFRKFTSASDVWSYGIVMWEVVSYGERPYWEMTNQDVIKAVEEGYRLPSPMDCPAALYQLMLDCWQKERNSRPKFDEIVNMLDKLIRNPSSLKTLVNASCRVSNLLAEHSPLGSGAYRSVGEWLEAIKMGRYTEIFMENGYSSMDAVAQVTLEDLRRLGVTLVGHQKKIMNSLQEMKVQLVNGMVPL
UniProt Q02763, 23-1124 limits assumed: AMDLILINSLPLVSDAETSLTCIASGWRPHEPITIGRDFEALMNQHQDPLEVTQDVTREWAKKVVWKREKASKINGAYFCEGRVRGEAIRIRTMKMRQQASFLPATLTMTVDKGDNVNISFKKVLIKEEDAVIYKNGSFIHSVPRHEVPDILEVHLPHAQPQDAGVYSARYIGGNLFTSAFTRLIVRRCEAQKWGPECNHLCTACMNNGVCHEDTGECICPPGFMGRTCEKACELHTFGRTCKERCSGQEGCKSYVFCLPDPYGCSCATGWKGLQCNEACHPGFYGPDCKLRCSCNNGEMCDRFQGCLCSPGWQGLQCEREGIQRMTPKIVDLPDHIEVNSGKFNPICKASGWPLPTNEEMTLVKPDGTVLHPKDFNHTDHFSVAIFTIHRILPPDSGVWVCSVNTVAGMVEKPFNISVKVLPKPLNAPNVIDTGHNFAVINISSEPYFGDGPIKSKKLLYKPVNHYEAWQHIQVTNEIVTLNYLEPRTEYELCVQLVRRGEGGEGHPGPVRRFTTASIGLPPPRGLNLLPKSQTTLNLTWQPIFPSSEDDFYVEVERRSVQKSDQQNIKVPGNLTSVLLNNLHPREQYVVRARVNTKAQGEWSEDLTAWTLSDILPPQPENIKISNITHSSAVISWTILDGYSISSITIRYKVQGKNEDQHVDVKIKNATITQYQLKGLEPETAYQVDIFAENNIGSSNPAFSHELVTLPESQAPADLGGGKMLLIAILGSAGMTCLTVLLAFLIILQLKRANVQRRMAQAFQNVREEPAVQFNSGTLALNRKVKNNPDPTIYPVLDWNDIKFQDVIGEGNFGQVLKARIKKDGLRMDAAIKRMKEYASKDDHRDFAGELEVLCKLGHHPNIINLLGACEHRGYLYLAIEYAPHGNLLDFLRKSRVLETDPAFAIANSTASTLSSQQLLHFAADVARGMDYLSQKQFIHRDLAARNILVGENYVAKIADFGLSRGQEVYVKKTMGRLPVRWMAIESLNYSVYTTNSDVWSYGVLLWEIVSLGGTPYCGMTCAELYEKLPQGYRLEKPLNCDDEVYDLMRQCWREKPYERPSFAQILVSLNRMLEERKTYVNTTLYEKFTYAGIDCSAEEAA
UniProt Q15375, 28-998 limits assumed: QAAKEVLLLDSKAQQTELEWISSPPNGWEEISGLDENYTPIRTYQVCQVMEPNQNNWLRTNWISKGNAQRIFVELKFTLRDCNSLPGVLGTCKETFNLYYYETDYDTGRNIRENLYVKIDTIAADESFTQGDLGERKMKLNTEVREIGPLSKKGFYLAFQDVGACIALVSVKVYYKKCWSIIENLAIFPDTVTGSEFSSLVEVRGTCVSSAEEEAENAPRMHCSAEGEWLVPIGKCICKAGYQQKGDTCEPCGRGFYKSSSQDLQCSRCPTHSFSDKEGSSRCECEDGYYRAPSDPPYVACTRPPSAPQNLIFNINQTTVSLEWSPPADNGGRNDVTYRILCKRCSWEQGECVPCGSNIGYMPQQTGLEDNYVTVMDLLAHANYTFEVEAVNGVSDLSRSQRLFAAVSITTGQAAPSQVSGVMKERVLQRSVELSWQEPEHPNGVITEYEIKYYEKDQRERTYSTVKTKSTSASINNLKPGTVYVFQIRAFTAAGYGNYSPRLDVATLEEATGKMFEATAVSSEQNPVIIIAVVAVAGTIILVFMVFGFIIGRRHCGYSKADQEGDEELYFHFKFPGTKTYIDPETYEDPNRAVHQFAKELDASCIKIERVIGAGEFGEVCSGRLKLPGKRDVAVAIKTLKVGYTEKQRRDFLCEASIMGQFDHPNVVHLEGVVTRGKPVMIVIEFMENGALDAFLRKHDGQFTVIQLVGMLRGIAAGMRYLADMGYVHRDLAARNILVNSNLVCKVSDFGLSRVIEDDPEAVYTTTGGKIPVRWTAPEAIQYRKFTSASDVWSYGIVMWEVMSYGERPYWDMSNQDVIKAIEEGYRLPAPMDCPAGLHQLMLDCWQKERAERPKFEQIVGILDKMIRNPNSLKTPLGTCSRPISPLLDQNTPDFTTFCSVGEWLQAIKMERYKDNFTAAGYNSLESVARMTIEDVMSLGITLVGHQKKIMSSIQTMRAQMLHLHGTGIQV

SMILES: C#Cc1cccc(Nc2nc3cc(C(=O)O)ccc3c3cncnc23)c1 [compound A2]
- % activity at 0.5 μM (protein kinases [1]): 99%
- % activity at 0.5 μM (protein kinases [2]): 99%
- % activity at 0.5 μM (protein kinases [3]): 122%
- % activity at 0.5 μM (protein kinases [4]): 99%
- % activity at 0.5 μM (protein kinases [5]): 125%
- % activity at 0.5 μM (protein kinases [6]): 99%
- % activity at 0.5 μM (protein kinases [7]): 99%
- % activity at 0.5 μM (protein kinases [8]): 11%
- % activity at 0.5 μM (protein kinases [9]): 100%

From patent US9062043B2, “Fused tricyclic compounds as serine-threonine protein kinase and PARP modulators” (SENHWA BIOSCIENCES, INC., priority 2006, dated 2015)
